Columns and labels:
PARP1 = target: T1, PARP1 (Homo sapiens, UniProt P09874); test: PARP1 trapping in chromatin, Western blot of chromatin extracts of X-irradiated AML cells; assay type: cell-based; settings: BMN673 1 nM or 10 nM compared with ABT888 500 nM or 5 μM; 4Gy X-irradiated AML cells
T1 construct: chromatin extracts from cells X-irradiated (4Gy) to induce DSBs were examined; endogenous in cells; host or cells: MV411 and MOLM14 AML cells

Amino acid sequences for entries named in this document (tags omitted).
UniProt P09874, whole entry: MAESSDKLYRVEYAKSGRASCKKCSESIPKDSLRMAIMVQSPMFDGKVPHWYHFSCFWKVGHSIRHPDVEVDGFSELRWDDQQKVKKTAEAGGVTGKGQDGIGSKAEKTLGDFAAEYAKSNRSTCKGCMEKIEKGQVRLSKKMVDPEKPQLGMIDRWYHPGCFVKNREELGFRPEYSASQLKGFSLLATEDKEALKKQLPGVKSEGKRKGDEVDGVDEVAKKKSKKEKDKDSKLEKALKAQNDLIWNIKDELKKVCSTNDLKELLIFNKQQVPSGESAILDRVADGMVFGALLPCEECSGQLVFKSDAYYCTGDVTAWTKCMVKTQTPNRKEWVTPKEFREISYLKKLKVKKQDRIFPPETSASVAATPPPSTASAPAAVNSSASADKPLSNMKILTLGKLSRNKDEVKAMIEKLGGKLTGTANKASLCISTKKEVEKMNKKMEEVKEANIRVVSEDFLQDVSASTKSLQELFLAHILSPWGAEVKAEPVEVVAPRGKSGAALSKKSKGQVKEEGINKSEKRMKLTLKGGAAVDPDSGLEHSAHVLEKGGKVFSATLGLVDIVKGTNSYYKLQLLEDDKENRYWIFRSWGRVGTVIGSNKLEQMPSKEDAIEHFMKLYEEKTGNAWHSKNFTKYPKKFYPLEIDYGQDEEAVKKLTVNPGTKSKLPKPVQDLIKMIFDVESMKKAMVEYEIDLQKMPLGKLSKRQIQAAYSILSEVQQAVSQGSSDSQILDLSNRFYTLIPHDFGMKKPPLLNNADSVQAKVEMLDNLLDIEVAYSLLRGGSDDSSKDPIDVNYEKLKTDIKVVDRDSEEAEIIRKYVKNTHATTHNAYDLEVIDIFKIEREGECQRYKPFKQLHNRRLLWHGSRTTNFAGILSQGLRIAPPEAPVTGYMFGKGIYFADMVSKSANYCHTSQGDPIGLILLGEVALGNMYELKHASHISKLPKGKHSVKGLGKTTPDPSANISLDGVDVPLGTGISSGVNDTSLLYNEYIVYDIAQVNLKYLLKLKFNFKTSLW

PARP = settings: Shen et al., 2013; cited from earlier work

Structure (SMILES): Cn1ncnc1[C@H]1c2n[nH]c(=O)c3cc(F)cc(c23)N[C@@H]1c1ccc(F)cc1 [BMN673]
- PARP1 in chromatin (PARP1): increased in chromatin
- inhibitory activity relative to earlier classes of PARPi's (PARP): up to 100 fold
